SMILES strings stand for the structures. Active and inactive are the calls of the source. No cut-off for these calls is given here.

Sequences of proteins named here, by UniProt entry; tags and fusion partners are left off.
UniProt P35372, whole entry, looked up: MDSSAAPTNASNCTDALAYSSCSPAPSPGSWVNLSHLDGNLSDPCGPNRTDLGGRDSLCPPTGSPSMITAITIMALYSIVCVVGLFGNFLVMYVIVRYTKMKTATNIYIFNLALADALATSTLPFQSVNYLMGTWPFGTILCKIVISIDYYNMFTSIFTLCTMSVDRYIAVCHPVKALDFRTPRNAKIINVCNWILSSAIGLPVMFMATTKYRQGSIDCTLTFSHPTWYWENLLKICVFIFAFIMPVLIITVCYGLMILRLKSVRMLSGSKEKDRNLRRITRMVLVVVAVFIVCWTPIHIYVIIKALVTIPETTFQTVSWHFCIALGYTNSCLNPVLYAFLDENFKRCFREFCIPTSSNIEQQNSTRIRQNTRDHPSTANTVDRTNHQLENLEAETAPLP

The target of test [1] is Mu-type opioid receptor (Homo sapiens) (UniProt P35372). In words: Displacement of [3H]DAMGO from mu opioid receptor (unknown origin) at 10 uM incubated for 180 mins by competitive radioligand binding assay (reference value: […]). On the technique in general: In a radioligand displacement assay an active substance lowers the binding of a labelled ligand.
Test [2] shares this target. As to the kind of experiment: Displacement of [3H]DAMGO from mu opioid receptor (unknown origin) at 1 uM incubated for 180 mins by competitive radioligand binding assay (reference value: 1.3 %). The note with it: filed as agonist.
In test [3] the test system is Mus musculus. As to the kind of experiment: Antinociceptive activity in C57BL/6 mouse assessed as latency of rapid tail-flick response at 100 mg/kg, sc pretreated with naloxone for 15mins followed by compound addition and measured for 30 to 240 mins by warm-water tail-flick assay. To be noted: time lower 30.0 min, time upper […].
Test [4] concerns Mus musculus. In words: Effect on locomotor activity in C57BL/6 mouse assessed as impaired motor activity by observing latency to fall at 65 to 80 mg/kg, sc and measured after 15 mins by rotorod test. The note with it: dose lower […], dose upper 80.0 mg/kg. On the technique in general: Falling from the rotarod earlier than controls is read as motor impairment.
In test [5] the test system is Mus musculus. As to the kind of experiment: Antinociceptive activity in C57BL/6 mouse assessed as latency of hind-paw response at 100 mg/kg, sc pretreated with naloxone for 15mins followed by compound addition and measured for 30 to 240 mins by hot plate assay. The note with it: time lower 30.0 min, time upper […]. On the technique in general: Hot-plate and tail-flick tests time the reaction to a heat stimulus.

Take `C/C=C1/CN2CC[C@@]34c5cc(OC(C)=O)ccc5N(C)[C@]35OC[C@@]4(C(=O)OC)[C@H]1C[C@H]25`: the Activity worked out at 54.1% in test [1] (filed as agonist) and 93.9% in test [2].
For `C/C=C1/CN2CC[C@@]34c5cc(-c6ccc(C)cc6)ccc5N(C)[C@]35OC[C@@]4(C(=O)OC)[C@H]1C[C@H]25`, the Activity in test [1] (filed as agonist) amounted to 71.1%; in test [2], 103%.
In the case of `C/C=C1/CN2CC[C@@]34c5cc(-c6ccccc6)ccc5N(C)[C@]35OC[C@@]4(C(=O)OC)[C@H]1C[C@H]25`, the Activity was 46.9% in test [1] (filed as agonist) and 101% in test [2].
With `C/C=C1/CN2CC[C@@]34c5cc(O)c(-c6ccc(F)cc6)cc5N(C)[C@]35OC[C@@]4(C(=O)OC)[C@H]1C[C@H]25`, the results for the Activity in test [1] and in test [2] were 10.7% and 63.4%, respectively.
Take `C/C=C1/CN2CC[C@@]34c5cc(I)ccc5N(C)[C@]35OC[C@@]4(C(=O)OC)[C@H]1C[C@H]25`: the figures for the Activity in test [1] (filed as agonist) and in test [2] were 67.2% and 98.7%, respectively.
Consider `C/C=C1/CN2CC[C@@]34c5cc(O)c(-c6ccc(C)cc6)cc5N(C)[C@]35OC[C@@]4(C(=O)OC)[C@H]1C[C@H]25`, for which the figures for the Activity in test [1] and in test [2] were 9.7% and 63.8%, respectively.
For `C/C=C1/CN2CC[C@@]34c5cc(OC)ccc5N(C)[C@]35OC[C@@]4(C(=O)OC)[C@H]1C[C@H]25`, the Activity in test [1] (filed as agonist) was 64.6%; in test [2] it was 90.5%.
As to `C/C=C1/CN2CC[C@@]34c5cc(C#N)ccc5N(C)[C@]35OC[C@@]4(C(=O)OC)[C@H]1C[C@H]25`, the Activity in test [1] (filed as agonist) worked out at 96.5%; in test [2] it was 99.1%.
As for `C/C=C1/CN2CC[C@@]34c5cc(O)c(-c6ccoc6)cc5N(C)[C@]35OC[C@@]4(C(=O)OC)[C@H]1C[C@H]25`, the Activity was determined as 16.1% in test [1] and 76.1% in test [2].
In the case of `C/C=C1/CN2CC[C@@]34c5cc(Br)ccc5N(C)[C@]35OC[C@@]4(C(=O)OC)[C@H]1C[C@H]25`, the Activity in test [1] (filed as agonist) was 51.6%; in test [2] it was 84.8%.
`C/C=C1/CN2CC[C@@]34c5cc(-c6ccoc6)ccc5N(C)[C@]35OC[C@@]4(C(=O)OC)[C@H]1C[C@H]25`: the Activity in test [1] is 36.9%; in test [2], 97.6%.
Turning to `C/C=C1/CN2CC[C@@]34c5cc(-c6ccc(OC)cc6)ccc5N(C)[C@]35OC[C@@]4(C(=O)OC)[C@H]1C[C@H]25`, the Activity was 89.9% in test [1] (filed as agonist) and 100% in test [2].
On the same counts, the results for `C/C=C1/CN2CC[C@@]34c5cc(-c6ccc(C#N)cc6)ccc5N(C)[C@]35OC[C@@]4(C(=O)OC)[C@H]1C[C@H]25` are 63.5% and 98.6%.
On to `C/C=C1/CN2CC[C@@]34c5cc(O)c(-c6ccc(C#N)cc6)cc5N(C)[C@]35OC[C@@]4(C(=O)OC)[C@H]1C[C@H]25`, for which the Activity in test [1] amounted to 12.3%; in test [2], 68.1%.
Turning to `C/C=C1/CN2CC[C@@]34c5cc(O)c(-c6ccc(OC)cc6)cc5N(C)[C@]35OC[C@@]4(C(=O)OC)[C@H]1C[C@H]25`, the Activity is 20.4% in test [1] and 81.4% in test [2].
On to `C/C=C1/CN2CC[C@@]34c5ccccc5N(C)[C@]35OC[C@@]4(CO)[C@H]1C[C@H]25`, for which the Activity in test [1] (filed as agonist) is 75.2%; in test [2] it was 98.4%.
Turning to `C/C=C1\CN2CC[C@@]34c5ccccc5N(CCc5ccccc5)[C@]35OC[C@@]4(C(=O)OC)[C@H]1C[C@H]25`, the result in the test on Mus musculus [3] and in the test with Mus musculus [5] was inactive. The result in the test with Mus musculus [4] was Active.
Consider `C/C=C1/CN2CC[C@@]34c5cc(-c6ccc(F)cc6)ccc5N(C)[C@]35OC[C@@]4(C(=O)OC)[C@H]1C[C@H]25`, for which the Activity is 53.9% in test [1] (filed as agonist) and 99% in test [2].
On the same counts, the results for `C/C=C1/CN2CC[C@]34C(=Nc5ccccc53)[C@@H]2C[C@@H]1[C@@]4(CO)C(=O)OC` are 67.8% and 85%.
Turning to `C/C=C1/CN2CC[C@@]34c5cc(O)c(-c6ccccc6)cc5N(C)[C@]35OC[C@@]4(C(=O)OC)[C@H]1C[C@H]25`, the values for the Activity in test [1] and in test [2] were 14.2% and 70.4%, respectively.
